We go through 1 molecule from paper PMC7611678 (ACS catalysis, 2021).

The assay relates to HspUPO. The following applies: 2 mM H2O2, McIlvaine buffer pH 4, 25 °C; glycosylated enzyme.

Where a name gives a salt, the structure may show the parent alone.

By Km is commonly meant the concentration of substrate that gives half-maximal velocity. For `CCn1c(=NN=c2sc3cc(S(=O)(=O)O)ccc3n2CC)sc2cc(S(=O)(=O)O)ccc21` [ABTS, 2,2'-Azino-bis(3-ethylbenzothiazoline-6-sulfonic acid) diammonium salt], the Km was determined as 30 ± 3.65 µM.
